Reference: patent US8088924B2, “Pyridone derivatives having a binding activity to the cannabinoid type 2 receptor” (Shionogi & Co., Ltd., priority 2000, dated 2012)

The chains behind the UniProt entries cited, without tags or fusion partners.
UniProt P34972, whole entry: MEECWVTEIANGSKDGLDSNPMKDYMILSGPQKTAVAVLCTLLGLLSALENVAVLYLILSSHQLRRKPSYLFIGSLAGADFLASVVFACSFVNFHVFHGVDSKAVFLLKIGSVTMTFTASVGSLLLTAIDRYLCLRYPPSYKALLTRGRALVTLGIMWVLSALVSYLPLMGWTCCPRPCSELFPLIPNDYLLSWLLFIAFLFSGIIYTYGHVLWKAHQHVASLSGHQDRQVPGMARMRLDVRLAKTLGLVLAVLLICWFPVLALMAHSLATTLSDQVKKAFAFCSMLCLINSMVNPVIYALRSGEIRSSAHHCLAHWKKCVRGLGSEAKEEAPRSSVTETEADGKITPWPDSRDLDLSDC
UniProt P21554, whole entry: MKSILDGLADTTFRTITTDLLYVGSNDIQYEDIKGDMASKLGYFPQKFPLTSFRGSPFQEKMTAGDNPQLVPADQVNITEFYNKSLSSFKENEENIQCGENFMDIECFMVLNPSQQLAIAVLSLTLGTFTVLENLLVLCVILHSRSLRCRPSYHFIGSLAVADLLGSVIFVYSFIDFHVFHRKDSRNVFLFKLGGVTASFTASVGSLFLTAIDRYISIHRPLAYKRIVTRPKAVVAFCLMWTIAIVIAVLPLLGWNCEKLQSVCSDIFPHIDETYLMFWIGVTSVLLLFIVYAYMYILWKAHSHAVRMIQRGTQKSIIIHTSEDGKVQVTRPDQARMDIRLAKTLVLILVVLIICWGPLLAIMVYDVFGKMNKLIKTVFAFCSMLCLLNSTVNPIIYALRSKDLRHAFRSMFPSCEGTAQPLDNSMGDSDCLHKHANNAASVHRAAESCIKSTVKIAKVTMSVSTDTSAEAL

Columns and labels:
[1] = biological target: T1, human CB2R (Homo sapiens, UniProt P34972); test: Human CB2 receptor binding inhibition ([3H]CP55940, membranes of CB2R-expressing CHO cells); details: read-out: Ki, CB2 receptor, [3H]CP55940 0.5 nM
[2] = biological target: human CB1 receptor (Homo sapiens, UniProt P21554); test: Human CB1 receptor binding assay ([3H]CP55940, membranes of CB1R-expressing CHO cells); details: read-out: Ki, CB1 receptor, [3H]CP55940 0.5 nM
[3] = biological target: T1, human CB2R; test: CB2 receptor-mediated suppression of forskolin-stimulated cAMP synthesis (agonistic activity); assay type: cell-based; details: read-out: IC50, inhibition of forskolin-stimulated cAMP synthesis; CHO cells expressing human CB2R, forskolin 4 μM
Experimental: The CHO cells expressing human CB2R were incubated with test compounds for 15 min. After the incubation, forskolin (final concentration of 4 μM, Sigma) was added and the cells were incubated for 20 min at 37° C. The reaction was stopped by the addition of 1N HCl and the amount of cAMP in the cell supernatant was measured using an EIA kit (Amersham Pharmacia. Biotech) according to the manufacture's protocol. The cAMP amount increased by forskolin compared to that in the absence of forskolin was defined as 100%, and the IC50 value of each test compound was determined as the concentration at which 50% of the forskolin-stimulated cAMP synthesis was inhibited.

CCCCn1c2c(cc(C(=O)NCCc3ccccc3)c1=O)CCCCCCCC2
Ki [1]: 4 nM | Ki [2]: > 5000 nM | IC50 [3]: 1.3 nM
